Reference: ChEMBL document CHEMBL1121722, “Nonquaternary cholinesterase reactivators. Dialkylaminoalkyl thioesters of alpha-ketothiohydroximic acids as reactivators of diisopropyl phosphorofluoridate inhibited acetylcholinesterase” (1981)

By UniProt entry, the sequences of proteins in these tests, tags left out. Where a name states a change or a piece, a line headed by the entry shows the natural chain unless it says otherwise.
UniProt P22303: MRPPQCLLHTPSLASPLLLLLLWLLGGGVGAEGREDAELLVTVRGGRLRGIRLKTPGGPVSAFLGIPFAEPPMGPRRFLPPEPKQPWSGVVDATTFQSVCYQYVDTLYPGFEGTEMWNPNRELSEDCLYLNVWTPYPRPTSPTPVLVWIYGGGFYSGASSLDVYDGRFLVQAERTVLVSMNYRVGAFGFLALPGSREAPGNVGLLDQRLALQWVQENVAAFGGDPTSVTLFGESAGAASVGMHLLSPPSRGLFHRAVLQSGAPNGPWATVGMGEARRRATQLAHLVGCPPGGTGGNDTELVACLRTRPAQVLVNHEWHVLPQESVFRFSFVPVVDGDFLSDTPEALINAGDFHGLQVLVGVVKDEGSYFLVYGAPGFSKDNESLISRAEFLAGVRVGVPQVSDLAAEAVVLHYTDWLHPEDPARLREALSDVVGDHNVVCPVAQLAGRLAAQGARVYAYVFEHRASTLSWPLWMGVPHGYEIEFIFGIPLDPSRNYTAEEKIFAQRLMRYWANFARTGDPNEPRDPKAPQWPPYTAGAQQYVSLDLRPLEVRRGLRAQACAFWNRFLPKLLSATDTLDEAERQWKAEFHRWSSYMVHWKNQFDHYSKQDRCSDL

Experiments:
[1] = molecular target: Acetylcholinesterase (Homo sapiens) (UniProt P22303); assay: kb for reactivation of acetylcholinesterase at concentration of 2M*10e4 [HOX] and 13.3Me-1*10e-3 [OX]e-1 was determined; Expressed as kb, 1/M 1/min
[2] = molecular target: Acetylcholinesterase (Homo sapiens) (UniProt P22303); assay: Pseudo first order observed rate constants for reactivation of acetylcholinesterase at 2M*10e4 HOX and 0.752M*10e4OX; Kobs (min-1 X 10e3)
[3] = molecular target: Acetylcholinesterase (Homo sapiens) (UniProt P22303); assay: Ratio of kaKr to that of kr for reactivation of acetylcholinesterase at concentration of 2M*10e4 [HOX] and 13.3Me-1*10e-3 [OX]e-1 was determined; Expressed as kaKr/kr; M*10e4
[4] = molecular target: Acetylcholinesterase (Homo sapiens) (UniProt P22303); assay: Kinetic constant was determined for reactivation of acetylcholinesterase at concentration of 2M*10e4 [HOX] and 13.3Me-1*10e-3 [OX]e-1; (kobsd-ka)e-1, min
[5] = molecular target: Acetylcholinesterase (Homo sapiens) (UniProt P22303); assay: Maximum attainable percent reactivation obtained for a range of concentrations of 7M*10e4 HOX and 2.63M*10e4OX
[6] = molecular target: Acetylcholinesterase (Homo sapiens) (UniProt P22303); assay: Ratio of [EOP'']infinity to that of [EOH]infinity for reactivation of acetylcholinesterase at concentration of 7M*10e4 [HOX] and 3.80 Me-1*10e-3 [OX]e-1; Expressed as [EOP'']infinity/[EOH]infinity
[7] = molecular target: Acetylcholinesterase (Homo sapiens) (UniProt P22303); assay: keff (rel) for reactivation of acetylcholinesterase at concentration of 2M*10e4 [HOX] and 13.3Me-1*10e-3 [OX]e-1 was determined; Expressed as keff (rel)
[8] = molecular target: Acetylcholinesterase (Homo sapiens) (UniProt P22303); assay: Ratio of [EOP'']infinity to that of [EOH]infinity for reactivation of acetylcholinesterase at concentration of 4M*10e4 [HOX] and 6.65Me-1*10e-3 [OX]e-1; Expressed as [EOP'']infinity/[EOH]infinity
[9] = molecular target: Acetylcholinesterase (Homo sapiens) (UniProt P22303); assay: Maximum attainable percent reactivation obtained for a range of concentrations of 20 M*10e4 HOX and 7.52M*10e4OX
[10] = molecular target: Acetylcholinesterase (Homo sapiens) (UniProt P22303); assay: Kr for reactivation of acetylcholinesterase at concentration of 2M*10e4 [HOX] and 13.3Me-1*10e-3 [OX]e-1 was determined; Expressed as kr, M*10e4
[11] = molecular target: Acetylcholinesterase (Homo sapiens) (UniProt P22303); assay: Pseudo first order observed rate constants for reactivation of acetylcholinesterase at 7M*10e4 HOX and 2.63M*10e4OX; Kobs (min-1 X 10e3)
[12] = molecular target: Acetylcholinesterase (Homo sapiens) (UniProt P22303); assay: Pseudo first order observed rate constants for reactivation of acetylcholinesterase at 4M*10e4 HOX and 1.52M*10e4OX; Kobs (min-1 X 10e3)
[13] = molecular target: Acetylcholinesterase (Homo sapiens) (UniProt P22303); assay: Ratio of [EOP'']infinity to that of [EOH]infinity for reactivation of acetylcholinesterase at concentration of 10M*10e4 [HOX] and 2.66Me-1*10e-3 [OX]e-1; Expressed as [EOP'']infinity/[EOH]infinity
[14] = molecular target: Acetylcholinesterase (Homo sapiens) (UniProt P22303); assay: Ratio of [EOP'']infinity to that of [EOH]infinity for reactivation of acetylcholinesterase at concentration of 6M*10e4 [HOX] and 4.42Me-1*10e-3 [OX]e-1; Expressed as [EOP'']infinity/[EOH]infinity
[15] = molecular target: Acetylcholinesterase (Homo sapiens) (UniProt P22303); assay: keff (rel) for reactivation of acetylcholinesterase at concentration of 2M*10e4 [HOX] and 10 Me-1*10e-3 [OX]e-1 was determined; Expressed as keff (rel)
[16] = molecular target: Acetylcholinesterase (Homo sapiens) (UniProt P22303); assay: kb for reactivation of acetylcholinesterase at concentration of 2M*10e4 [HOX] and 10 Me-1*10e-3 [OX]e-1 was determined; Expressed as kb, 1/M 1/min
[17] = molecular target: Acetylcholinesterase (Homo sapiens) (UniProt P22303); assay: Pseudo first order observed rate constants for reactivation of acetylcholinesterase at 0.0300 M *10e4 HOX and 0.00870 M*10e4OX; Kobs (min-1 X 10e3)
[18] = molecular target: Acetylcholinesterase (Homo sapiens) (UniProt P22303); assay: Pseudo first order observed rate constants for reactivation of acetylcholinesterase at 0.160 M *10e4 HOX and 0.0463M*10e4OX; Kobs (min-1 X 10e3)
[19] = molecular target: Acetylcholinesterase (Homo sapiens) (UniProt P22303); assay: Ratio of [EOP']infinity to that of [EOH]infinity for reactivation of acetylcholinesterase at concentration of 0.0800 M*10e4 [HOX] and 431Me-1*10e-3 [OX]e-1; Expressed as [EOP']infinity/[EOH]infinity
[20] = molecular target: Acetylcholinesterase (Homo sapiens) (UniProt P22303); assay: ka for reactivation of acetylcholinesterase at concentration of 2M*10e4 [HOX] and 10 Me-1*10e-3 [OX]e-1 was determined; Expressed as ka, 1/min 1*10e3
[21] = molecular target: Acetylcholinesterase (Homo sapiens) (UniProt P22303); assay: Maximum attainable percent reactivation obtained for a range of concentrations of 0.0300 M *10e4 HOX and 0.00870 M*10e4OX
[22] = molecular target: Acetylcholinesterase (Homo sapiens) (UniProt P22303); assay: Maximum attainable percent reactivation obtained for a range of concentrations of 0.200 M*10e4 HOX and 0.0571 M*10e4OX; No affinity point measured
[23] = molecular target: Acetylcholinesterase (Homo sapiens) (UniProt P22303); assay: Kinetic constant was determined for reactivation of acetylcholinesterase at concentration of 0.0300 M *10e4 [HOX] and 1156Me-1*10e-3 [OX]e-1; (kobsd-ka)e-1, min

CCN(CC)CCS/C(=N\O)C(=O)c1ccc(OC)cc1
kb [1]: 0.5 M⁻¹ s⁻¹
k obs [2]: 50.4 s⁻¹
kaKr/kr [3]: 21000 M
1/kobsd-ka [4]: 538 min
Reactivation [5]: 4.1%
[EOP']infinity/[EOH]infinity [6]: 0.657
k eff (rel) [7]: 1
[EOP']infinity/[EOH]infinity [8]: 2.05
Reactivation [9]: 4.3%
Kr [10]: 29000 M
k obs [11]: 119 s⁻¹
k obs [12]: 73.5 s⁻¹
[EOP']infinity/[EOH]infinity [13]: 0.742
[EOP']infinity/[EOH]infinity [14]: 1.26

C[n+]1ccccc1C=NO
k eff (rel) [15]: 145
kb [16]: 91.7 M⁻¹ s⁻¹
k obs [17]: 110 s⁻¹
k obs [18]: 337 s⁻¹
[EOP']infinity/[EOH]infinity [19]: 0.506
ka [20]: 6700 min⁻¹
Reactivation [21]: 3.93%
Reactivation [22]: No affinity point measured
1/kobsd-ka [23]: 200 min
